The values that follow are results of earlier work, collected in patent publication US20250179584A1, “PRECISION THERAPY FOR THE TREATMENT OF CANCER” (Novartis AG, priority 2022, published 2025).

The test system of this data set is metastatic melanoma. To be noted: 2L/3L regardless of NRAS mutation after anti-PD-(L)-1 progression; literature values; cited from earlier work.

As to “IL-2: high-dose IL-2, systemic therapy for metastatic melanoma”, the ORR is 16%.
